Reference: PubChem BioAssay AID1996
In brackets after ≈: the same amount, converted by molar mass. Some results for these compounds are left out of this collection, so the calls shown say nothing about other tests.

Conditions: buffer; pH 7.4; 200.0 µM

Q: Which solubility kinetic does the source give for `CN(C)C1(CNC(=O)c2ccc(Br)cc2)CCCCC1` here?
A: Its solubility kinetic is 42.8 µg/mL (≈ 126 µM).

Q: Which solubility kinetic does the source give for `COc1cc(SC)ccc1C(=O)NCC1(N(C)C)CCCCC1` here?
A: The solubility kinetic was over 50.5 µg/mL.

Q: For `CN(C)c1ccc(C(=O)NCC2(N(C)C)CCCCC2)cc1`, which solubility kinetic is on record?
A: The solubility kinetic was over 45.5 µg/mL.

Q: For `Cc1ccccc1C(=O)NCC1(N2CCCCC2)CCCCC1`, which solubility kinetic is on record?
A: The solubility kinetic was over 47.2 µg/mL.

Q: Which solubility kinetic does the source give for `COc1ccc(Cl)cc1C(=O)NCC1(N(C)C)CCCCC1` here?
A: Its solubility kinetic is 46.4 µg/mL (≈ 143 µM).

Q: For `COc1ccc(C(=O)NCC2(N(C)C)CCCCC2)cc1`, which solubility kinetic is on record?
A: Its solubility kinetic is over 43.6 µg/mL.

Q: For `CC(C)Oc1ccc(C(=O)NCC2(N(C)C)CCCCC2)cc1`, which solubility kinetic is on record?
A: The solubility kinetic was over 47.8 µg/mL.

Q: With `COc1cccc(C(=O)NCC2(N3CCCCC3)CCCCC2)c1` as the compound, how does the solubility kinetic read?
A: Its solubility kinetic is over 49.6 µg/mL.

Q: Which solubility kinetic does the source give for `Cc1ccc(C(=O)NCC2(N3CCCCC3)CCCCC2)cc1` here?
A: Its solubility kinetic is over 47.2 µg/mL.

Q: Which solubility kinetic does the source give for `O=C(NCC1(N2CCCCC2)CCCCC1)c1cccc(Cl)c1` here?
A: Its solubility kinetic is over 50.2 µg/mL.
